Measured values: BindingDB's records for doi:10.1016/j.bmc.2003.11.015 (Bristol-Myers Squibb Pharmaceutical Research Institute, 2004)

Protein sequences, listed by entry. Tags and fused reporters are not part of them.
UniProt P61169, whole entry: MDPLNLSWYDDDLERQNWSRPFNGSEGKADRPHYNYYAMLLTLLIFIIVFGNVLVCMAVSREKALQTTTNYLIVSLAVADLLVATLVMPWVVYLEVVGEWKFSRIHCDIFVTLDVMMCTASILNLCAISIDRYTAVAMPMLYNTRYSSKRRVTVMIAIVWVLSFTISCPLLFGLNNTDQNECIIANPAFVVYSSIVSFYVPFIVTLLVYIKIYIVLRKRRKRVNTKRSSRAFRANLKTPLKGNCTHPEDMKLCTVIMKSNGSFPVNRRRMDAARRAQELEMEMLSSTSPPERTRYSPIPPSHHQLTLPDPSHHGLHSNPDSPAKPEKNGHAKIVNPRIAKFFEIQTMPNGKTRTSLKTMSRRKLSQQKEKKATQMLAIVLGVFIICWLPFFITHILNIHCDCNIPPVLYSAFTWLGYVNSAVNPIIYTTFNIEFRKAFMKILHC
UniProt P18901, whole entry: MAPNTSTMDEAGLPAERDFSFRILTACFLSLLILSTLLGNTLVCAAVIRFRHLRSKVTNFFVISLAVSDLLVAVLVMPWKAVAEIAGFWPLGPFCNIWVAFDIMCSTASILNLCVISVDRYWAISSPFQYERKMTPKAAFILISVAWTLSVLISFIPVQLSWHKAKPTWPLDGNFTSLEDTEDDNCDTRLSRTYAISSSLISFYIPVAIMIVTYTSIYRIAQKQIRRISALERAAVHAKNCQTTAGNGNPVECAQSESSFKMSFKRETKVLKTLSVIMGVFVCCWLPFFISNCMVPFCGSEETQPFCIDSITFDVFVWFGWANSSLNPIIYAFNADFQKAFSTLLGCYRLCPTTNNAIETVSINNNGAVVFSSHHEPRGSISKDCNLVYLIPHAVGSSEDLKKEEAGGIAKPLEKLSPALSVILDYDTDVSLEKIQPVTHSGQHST

How the values were obtained:
D(2) dopamine receptor = D(2) dopamine receptor (Rattus norvegicus, UniProt P61169)
D(1A) dopamine receptor = D(1A) dopamine receptor (Rattus norvegicus, UniProt P18901)

SMILES	Ki (D(2) dopamine receptor) [nM]	Ki (D(1A) dopamine receptor) [nM]
Oc1ccc2c(c1O)Cc1cccc3c1[C@@H]2CNC3	1500	5300
Oc1ccc2c(c1O)Cc1cccc3c1C2CNC3 (stereo not drawn) [Dinapsoline, (+/-)]	56	67
Oc1ccc2c(c1O)Cc1cccc3c1[C@H]2CNC3 [Dinapsoline, (R)(+)]	38	33
